Results from patent US6391848B1, “Soybean protein nutraceuticals” (The Regents of the University of California, priority 1999, dated 2002).

Settings: in vivo

## lunasin
  survival of digestion, absorption and tissue distribution: effectively survives digestion, gets absorbed and ends up in the tissues
